Source: article PMC4207540 (Journal of Medicinal Chemistry, 2014)

Test system: HT1080 cells
Assay: D2HG production inhibition in HT1080 cells
Details: Homo sapiens, HT-1080, 48 h, read-out: IC50 for inhibition of D2HG

Row | Structure (SMILES) | IC50 [µM]
1 | Cc1cc(Cc2ccc(O)cc2)n(O)c(=O)c1 [Compound 3] | 8.5 ± 2.5
2 | O=c1cccc(Cc2ccccc2)n1O [Compound 7] | > 30
